Assay results published in publication PMC10141516, “Development of Clinically Optimized Sitagliptin and Dapagliflozin Complex Tablets: Pre-Formulation, Formulation, and Human Bioequivalence Studies” (Pharmaceutics, 2023).

Experiment: Stability study of the APIs in pH buffers (total impurity by HPLC)
Format: physicochemical
Conditions: pH 5.0 buffer; 40 ± 2 °C/75 ± 5% RH; 3 Days
Description: The column used was the Gemini C18 column (5.0 μm, 250 mm). Mobile phase A of the impurity study was prepared with KH2PO4 buffer (v/v, solution adjusted to pH 6.0 with 1 M KOH): acetonitrile: methanol = 85: 10: 5 (v/v/v), and mobile phase B was prepared with 90% acetonitrile. The mobile phase was filtered through a 0.4 μm polypropylene membrane filter and degassed via sonication. The diluted solution was prepared with KH2PO4 buffer (v/v, solution adjusted to pH 6.0 with 1 M KOH) and acetonitrile at a ratio of 7:3 (v/v). The wavelength, flow rate, and injection volume were set to 220 nm, 1.0 mL/min, and 20 μL, respectively. The column and sample thermostats were set to 35 °C and 5 °C, respectively. In the case of the impurity study, the analysis was performed by changing the composition of the mobile phase for 80 min using a gradient elution method for 80 min.
[…] […] We performed a calibration test, and the sample was diluted with a diluted solution and prepared at a concentration of 0.05–1 mg/mL.

CCOc1ccc(Cc2cc([C@@H]3O[C@H](CO)[C@@H](O)[C@H](O)[C@H]3O)ccc2Cl)cc1 [Dapagliflozin, (1S)-1,5-Anhydro-1-C-[4-chloro-3-[(4-ethoxyphenyl)methyl]phenyl]-D-glucitol (S)-propane-1,2-diol (1:1) monohydrate]
Total Impurity: 1.36%
